The numbers were not newly measured in publication PMC6691393, which cites them from elsewhere.

Sequences of proteins named here, by UniProt entry; tags and fusion partners are left off. Residues count along the entry.
UniProt P98170, 262-333: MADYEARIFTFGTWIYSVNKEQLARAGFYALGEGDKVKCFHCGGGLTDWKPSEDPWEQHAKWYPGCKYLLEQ
UniProt Q9NR28, whole entry, looked up, tested part not stated: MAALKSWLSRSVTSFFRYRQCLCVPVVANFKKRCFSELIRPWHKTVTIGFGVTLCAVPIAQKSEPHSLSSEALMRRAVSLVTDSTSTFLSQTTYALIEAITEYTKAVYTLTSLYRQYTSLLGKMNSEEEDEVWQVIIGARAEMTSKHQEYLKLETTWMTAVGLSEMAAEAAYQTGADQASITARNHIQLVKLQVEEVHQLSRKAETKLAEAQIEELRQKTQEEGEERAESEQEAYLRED

Usually pKd stands for the Kd on a negative log10 scale, so that one unit is a factor of ten.

The data set addresses XIAP BIR3 (Homo sapiens) (UniProt P98170).

pKd: −log10 of the molar value.

Consider “SMAC/Diablo N-terminal peptide (from UniProt Q9NR28)”, for which the pKd is 6.61.
